Laboratory results from ChEMBL document CHEMBL1124862 (J Med Chem, 1990).

Sequences of proteins named here, by UniProt entry; tags and fusion partners are left off.
UniProt P19327, whole entry: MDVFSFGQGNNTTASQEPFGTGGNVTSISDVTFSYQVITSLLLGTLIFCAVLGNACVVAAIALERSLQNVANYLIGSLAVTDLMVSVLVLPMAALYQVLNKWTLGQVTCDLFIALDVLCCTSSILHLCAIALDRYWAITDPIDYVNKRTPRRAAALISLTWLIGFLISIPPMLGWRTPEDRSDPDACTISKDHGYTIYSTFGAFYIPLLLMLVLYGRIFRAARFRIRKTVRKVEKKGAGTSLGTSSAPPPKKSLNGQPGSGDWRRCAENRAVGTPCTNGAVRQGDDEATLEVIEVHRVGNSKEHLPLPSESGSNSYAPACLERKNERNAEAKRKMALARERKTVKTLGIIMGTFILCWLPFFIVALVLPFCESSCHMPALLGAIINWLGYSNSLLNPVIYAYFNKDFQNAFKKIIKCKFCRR

Target: 5-hydroxytryptamine receptor 1A (Rattus norvegicus, UniProt P19327)
Assay: Displacement of [3H]8-OH-DPAT from rat cortex 5-hydroxytryptamine 1A receptor
Method in brief: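 Competition binding in rat cortex membranes, using the radioligand named in each line at a concentration of approximately its K_D.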

Work on `NCCc1c[nH]c2ccc(O)cc12` [SEROTONIN] yielded an IC50 of 5.2 nM.
